The text below walks through data of US8435976B2, “4-substituted pyridin-3-yl-carboxamide compounds and methods of use” (F. Hoffmann-La Roche, priority 2009, dated 2013).

The chains behind the UniProt entries cited, without tags or fusion partners.
UniProt P11309, whole entry: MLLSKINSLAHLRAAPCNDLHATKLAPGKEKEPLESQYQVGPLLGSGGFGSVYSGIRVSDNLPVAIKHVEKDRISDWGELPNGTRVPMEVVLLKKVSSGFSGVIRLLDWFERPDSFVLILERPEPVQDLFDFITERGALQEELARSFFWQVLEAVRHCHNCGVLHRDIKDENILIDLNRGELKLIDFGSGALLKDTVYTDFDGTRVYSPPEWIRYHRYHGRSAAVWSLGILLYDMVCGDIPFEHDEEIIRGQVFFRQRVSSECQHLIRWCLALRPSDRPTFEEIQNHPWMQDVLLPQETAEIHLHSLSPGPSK

Assay [1] deals with T1, PIM3 (Homo sapiens, UniProt Q86V86).
T1 construct: made in house
Kind of assay: Pim-3 kinase enzymatic assay (Caliper LC3000, FAM-Pimtide substrate). To be noted: 55 pM PIM3, 10 μM ATP, 90 minutes; read-out: PIM3 LC3K (Ki). It counts as biochemical. The method, then: (§1) Reaction Buffer contained 10 mM HEPES, pH 7.2, 10 mM MgCl2, 0.01% Tween 20, 2 mM DTT.
(§2) PIM reactions were carried out in a final volume of 10 μL per well in a 384-well plate. […] The separation of product and substrate was optimized by choosing voltages and pressure using Caliper's Optimizer software (Hopkinton, Mass.). The separation conditions used a downstream voltage of −500V, an upstream voltage of −2150V, and a screening pressure of −1.2 psi. […] Substrate conversion was calculated from the electrophoregram using HTS Well Analyzer software (Caliper Life Sciences, Hopkinton, Mass.). Ki values for the test compound were calculated.

Assay [2] has as its target T2, PIM1 (Homo sapiens, UniProt P11309).
T2 construct: made in house
Kind of assay: Pim-1 kinase enzymatic assay (Caliper LC3000, FAM-Pimtide substrate). It counts as biochemical. To be noted: 20 pM PIM1, 10 μM ATP, 90 minutes; read-out: PIM1 LC3K (Ki). The method, then:
as §1, §2

Assay [3] addresses BaF3 PIM1 cells (Homo sapiens, UniProt P11309). Kind of assay: BaF3 PIM1 cell proliferation (Cell Titer Glo). It counts as cell-based. The conditions noted are these: incubated overnight; read-out: Prolif BaF3_PIM1 (IC50). The method, then:
BaF3 parental line was obtained from the DSMZ repository. BaF3 lines transfected with PIM1 or PIM2 were generated. Mouse IL-3 was purchased from R&D Systems. G418 was purchased from Clontech. Media for BaF3 parental line contained RPMI, 10% FBS, 2 mM L-Glutamine, 2 ng/mL mIL-3. Media for BaF3 PIM1 & 2 lines contained RPMI, 10% FBS, 2 mM L-Glutamine, […]. Media for MM1.S line contained RPMI, 10% FBS, 2 mM L-Glutamine.
BaF3 parental cells, BaF3 PIM1 cells, BaF3 PIM2 cells, and MM1.S cells were seeded at 2 k/well, 5 k/well, 5 k/well, and 10 k/well respectively, in a 384-well plate, at 45 μL/well. Test compound was added at 5 μL/well. BaF3 cells (parental and transfected) were incubated overnight, while MM1.S cells were incubated for 72 hours at 37° C., 5% CO2. Cell Titer Glo Reagent (Promega) was added at 50 μL/well, the plates were incubated for 30 minutes, and their luminescence read on an HT Analyst. IC50/EC50 values for the test compound were calculated.
(In ATP-based viability assays light output follows the ATP content of the culture.)

One may read the Ki as a measure of affinity in units of concentration, obtained from inhibition or displacement. Consider `N[C@H]1CCCN(c2ccncc2NC(=O)c2csc(-c3c(F)cccc3F)n2)C1` [Example 46, (S)-N-(4-(3-aminopiperidin-1-yl)pyridin-3-yl)-2-(2,6-difluorophenyl)thiazole-4-carboxamide], for which the Ki amounted to 0.259 nM in assay [1] and 0.264 nM in assay [2]. Moreover, the GI50 in assay [3] turned out to be 148 nM.
